# Experimental properties from OPERA 2.9

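OPERA's authors assembled the values from existing databases and did not measure them anew. The files give a single number for a compound and property, which may rest on several reports. Conditions of the individual experiments are not part of the data. The measured form (salt, isomer or mixture) is not always the one drawn. Some entries may be limits or estimates that an upstream database listed as plain numbers.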

Melting points are in °C. Boiling points are in °C, nominally at 760 mmHg. The octanol-water partition coefficient is given as log10; larger values mean a more lipophilic compound. Water solubility is log10 of mol/L, nominally at 25 °C; higher is more soluble. Vapor pressure is log10 of mmHg; the set covers 15 to 30 °C, mostly 20 to 25 °C. Henry's law constant (air-water partitioning) is log10 of atm·m3/mol, nominally at 25 °C. fu is the fraction unbound in human plasma, from 0 to 1. Intrinsic clearance (human, µL/min per 10^6 hepatocytes): higher is faster turnover, and 0 stands for none detected.

Listed for COc1cc2nc(N(C)CCCNC(=O)C3CCCO3)nc(N)c2cc1OC (stereo not given) [Alfuzosin]: logP 1.4 and log solubility -3.14 (log10 mol/L) and fraction unbound 0.115.
Listed for CC(O)C(=O)N(C)C (stereo not given) [Propanamide, 2-hydroxy-N,N-dimethyl-]: logP -0.94 and log VP -1.046 (log10 mmHg).
Listed for COC(=O)[C@@]1(C)[C@H](C)C[C@H]2[C@@H]3CCC4=CC(=O)C=C[C@]4(C)[C@H]3[C@@H](O)C[C@@]21C [Rimexolone]: logP 4.2 and log solubility -4.488 (log10 mol/L).
Listed for NCC1C2CCC(C2)C1CN (stereo not given) [(Bicyclo[2.2.1]heptane-2,3-diyl)dimethanamine]: mp 15.5 °C and logP 1 and log VP -0.862 (log10 mmHg).
Listed for CCOC(=O)[C@H](CCc1ccccc1)N[C@@H](C)C(=O)N1Cc2cc(OC)c(OC)cc2C[C@H]1C(=O)O [Moexipril]: logP 2.7 and log solubility -4.931 (log10 mol/L) and fraction unbound 0.5.
Listed for CC1(C)C2CC3C(C2)C31C(=O)O [7,7-Dimethyltricyclo[2.2.1.02,6]heptane-1-carboxylic acid]: boiling point 263 °C and log solubility -2.942 (log10 mol/L).
Listed for OCC(CO)(CBr)CBr [Pentaerythritol dibromide]: boiling point 252.5 °C and log VP -4.824 (log10 mmHg).
Listed for COC(=O)C(C)(C)c1ccc(Br)cc1 [METHYL 2-(4-BROMOPHENYL)-2,2-DIMETHYLACETATE]: logP 3.73 and log solubility -3.777 (log10 mol/L).
Listed for CC(C)(C)COC(=N)O [2,2-Dimethylpropyl hydrogen carbonimidate]: logP 0.94 and log solubility -0.8 (log10 mol/L).
Listed for COC(=O)CC1CCCCC1 [Methylcyclohexylacetate]: logP 1.32 and log solubility -2.717 (log10 mol/L) and log VP -0.462 (log10 mmHg).
Listed for COC(=O)C(CNC(=O)c1ccccc1C(F)(F)F)(C(=O)OC)c1ncc(C(F)(F)F)cc1Cl: mp 103.2 °C and logP 3.6 and log solubility -4.534 (log10 mol/L).
Listed for Cc1ccc(Cl)c(Nc2ccccc2C(=O)O)c1Cl [Meclofenamic acid]: logP 5 and log solubility -4.908 (log10 mol/L).
Listed for CC(C)OCC1CO1 (stereo not given) [Isopropyl glycidyl ether]: logP 0.5 and log solubility 0.214 (log10 mol/L) and log VP 0.973 (log10 mmHg).
Listed for ClCCl [Dichloromethane]: fraction unbound 0.7057 and hepatic Clint 2.718 µL/min/10^6 cells.
Listed for O=C1NCCN1 [Ethylene urea]: logP -0.95 and log VP -4.777 (log10 mmHg) and Henry's law constant -10.87 (log10 atm·m3/mol).
Listed for C=COCCCCCCCCCCCC [Dodecane, 1-(ethenyloxy)-]: mp -11 °C and boiling point 236.8 °C and log VP -2.593 (log10 mmHg).
Listed for CC1(C)CC2(CC(C)(C)N1)OC1(CCCCCCCCCCC1)NC2=O: mp 230.3 °C and log solubility -5.085 (log10 mol/L) and log VP -9.284 (log10 mmHg).
Listed for N#Cc1ccc(C=Cc2ccc(C=Cc3cccc(C#N)c3)cc2)cc1: mp 208.8 °C and logP 4.8 and log solubility -8.124 (log10 mol/L).
Listed for ClCc1ccc(-c2ccc(CCl)cc2)cc1 [4,4'-Bis(chloromethyl)-1,1'-biphenyl]: logP 4.61 and log VP -3.462 (log10 mmHg).
Listed for C=C(C)C(=O)OCCOCCOCCOC(=O)C(=C)C [Triethylene glycol dimethacrylate]: log solubility -1.901 (log10 mol/L) and log VP -3.238 (log10 mmHg).
Listed for COCCOCCOCCOB(OCCOCCOCCOC)OCCOCCOCCOC [Tris(2-(2-(2-methoxyethoxy)ethoxy)ethyl) orthoborate]: boiling point 345 °C and logP -0.585.
Listed for CCCCC(CC)CNC(=O)CC(C)CC(C)(C)C (stereo not given) [N-(2-Ethylhexyl)-3,5,5-trimethylhexanamide]: mp -77 °C and boiling point 330 °C and log solubility -5.391 (log10 mol/L) and log VP -3.444 (log10 mmHg).
Listed for COC(=O)CS(=O)(=O)c1ccc(Cl)cc1 [Methyl [(4-chlorophenyl)sulfonyl]acetate]: mp 85 °C and log solubility -2.379 (log10 mol/L).
Listed for CC(OC(C)(C)COC(=O)C1CC1)C1CCCC(C)(C)C1 (stereo not given): log solubility -4.892 (log10 mol/L) and log VP -1.949 (log10 mmHg).
Listed for Cc1ccccc1OCC1CO1 (stereo not given) [o-Cresyl glycidyl ether]: logP 2.5 and log solubility -2.253 (log10 mol/L) and log VP -2.312 (log10 mmHg).
Listed for Nc1ccc(NCCO)c([N+](=O)[O-])c1 [HC Red 3]: logP 0.27 and log solubility -2.191 (log10 mol/L) and log VP -8.78 (log10 mmHg).
Listed for O=C(O)c1cccc(N(Cc2cccnc2)c2ccc(OC(F)F)c(OC(F)F)c2)c1: fraction unbound 0.0142 and hepatic Clint 7.69 µL/min/10^6 cells.

The last 3 entries again:

{"smiles": "Cc1ccccc1OCC1CO1", "stereo": "stereo not given", "name": "o-Cresyl glycidyl ether", "logP": "2.5", "log solubility (log10 mol/L)": "-2.253", "log VP (log10 mmHg)": "-2.312"}
{"smiles": "Nc1ccc(NCCO)c([N+](=O)[O-])c1", "name": "HC Red 3", "logP": "0.27", "log solubility (log10 mol/L)": "-2.191", "log VP (log10 mmHg)": "-8.78"}
{"smiles": "O=C(O)c1cccc(N(Cc2cccnc2)c2ccc(OC(F)F)c(OC(F)F)c2)c1", "fraction unbound": "0.0142", "hepatic Clint (µL/min/10^6 cells)": "7.69"}

Data: OPERA 2.9 data sets, kmansouri/OPERA on GitHub.